Source: PubChem BioAssay (National Center for Advancing Translational Sciences (NCATS))
A549 viability: A549 cytotoxicity, counter-screen for Nrf2 inhibitors; A549 ARE-Fluc cells, CellTiter-Fluor viability, 18-24 h; Potency, µM (top dose mostly 46 µM), without a hit: at the highest dose activity change, negative = cytotoxicity, hits mostly inhibitors; 390,000 tested, 0.16% active; AID 504648; further: potency means the concentration at half of the fitted maximal effect; on the % scale 0 is the no-effect control and ±100 the full control effect
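Cytotoxicity counterscreen: CellTiter-Fluor fluorescence was measured in A549 ARE_Fluc cells after 18-24 h of compound exposure in a concentration series. The subsequent BugLite luminescent read reports ARE-luciferase activity.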
ClpP mod: qHTS Assay for Activators of ClpP; ATP-dependent Clp protease proteolytic subunit (Bacillus subtilis (strain 168)), P80244; purified B. subtilis ClpP, FRET peptide cleavage, 20 min; Potency, µM (series often up to 57.5 µM), for the others: top-dose activity change, negative = active; 340,000 tested, 1.9% active; active means well fitted falling curve with a large enough effect; inconclusive means small, poorly fitted or top-dose-only effect; inactive means no such curve, though single readings can be large or run the other way; further: potency means the concentration at half of the fitted maximal effect; the source files actives as falling curves though it sought activators and does not explain the sign; nearly all actives have a fitted effect of over 65% in size
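FRET quenching reversal measured ClpP activation: 10 microg/mL B. subtilis ClpP at pH 8 with the FRET-FV decapeptide, read at 430 nm after 320 nm excitation. The 20-min minus 0-min signal was scaled between DMSO/no-enzyme wells and ADEP (5.8 microM final).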
Nrf2 inh: blocks Nrf2 signaling; A549 ARE-Fluc reporter, luciferase luminescence, 18-24 h; Potency, µM (titrated, usually from 46 µM), inactives show at the highest dose activity change, negative = inhibition, hits mostly inhibitors; 360,000 tested, 2.1% active; AID 504444; further: potency means the concentration at half of the fitted maximal effect; on the % scale 0 is the no-effect control and ±100 the full control effect; nearly all actives have a fitted effect of over 60% in size
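Quantitative HTS in A549 cells stably bearing an antioxidant response element-firefly luciferase construct. Inhibition of Nrf2-driven transcription was scored by luminescence after 18-24 h of compound exposure at 37 °C.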
p53 reactivator: restores transcriptional activity of mutant p53; H1299 p53-A138V BP100-luciferase reporter, luminescence, 24 h; Potency, µM (doses to about 92.2 µM), without a hit: at the highest dose activity change, positive = activation, usual class: activators; 320,000 tested, 0.063% active; AID 504706; further: potency means the concentration at half of the fitted maximal effect; % of control where 0% means no effect; nearly all actives have a fitted effect of over 45% in size
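p53-null H1299 cells stably carrying temperature-sensitive p53-A138V and a BP100-luciferase reporter were pinned with compounds (4-point, 1:5 series) and held 24 hrs at 37 deg C. Luminescence was read 10 min after detection reagent.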
miR-21 reporter: miR-21 reporter, rising signal | AID 2288 | HeLa miR-21 FLuc reporter, luciferase, 48 h | 340,000 tested, under 10 active | Potency, µM (doses to about 38.3 µM), for inactives: at the top dose reporter change, positive = more light; active = well fitted rising curve with a large enough effect; inconclusive = small, poorly fitted or top-dose-only effect; inactive = no such curve, though single readings can be large or run the other way;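 note: % of control where 0% means no effect; miR-21 action dims this reporter so a rising signal means less miR-21 action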
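HeLa cells endogenously expressing miR-21, stably carrying CMV-driven firefly luciferase with a downstream miR-21 binding site, 2000 cells/well. Titrations up to approximately 40 uM, 48 hours; luciferase luminescence read.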
Nrf2 ARE act: activators of Nrf2 (ARE) signaling. AREc32 ARE-luciferase reporter (MCF7-derived line), luminescence, 24 h. Potency, µM (highest dose often 46.1 µM), inactives show top-dose activation, hits mostly activators. 410,000 tested, 0.31% active. AID 624171; further: potency means the concentration at half of the fitted maximal effect; % of control where 0% means no effect; nearly all actives have a fitted effect of over 65% in size
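Each well held 1000 AREc32 cells, which were incubated with compound for 24 hr at 37 deg C after overnight attachment, and ARE reporter activity was quantified by firefly luciferase luminescence.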
The depositor's hits bear a star; ? = inconclusive; nt = no result given. The list is not random: actives were taken first. Their share in the collection is about 3.7%. Unless noted, the call rests on the fitted dose curve; in most records, active means well fitted curve in the direction sought with a large enough effect; inconclusive means small, poorly fitted or top-dose-only effect, or another doubt; inactive means no such curve, though single readings can be large; an effect the other way counts as inactive or inconclusive.

Amino acid sequences for entries named in this document (tags omitted).
ATP-dependent Clp protease proteolytic subunit (Bacillus subtilis (strain 168)), P80244, UniProt P80244, whole entry, looked up: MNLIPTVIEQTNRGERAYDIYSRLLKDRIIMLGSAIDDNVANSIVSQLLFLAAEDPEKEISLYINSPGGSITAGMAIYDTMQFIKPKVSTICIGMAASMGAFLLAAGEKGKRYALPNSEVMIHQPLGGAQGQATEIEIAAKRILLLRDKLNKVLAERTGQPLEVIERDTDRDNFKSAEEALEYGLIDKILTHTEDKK

No.	Structure	A549 viability	ClpP mod	Nrf2 inh
1	COc1cc(OC)cc(C(=O)NCC(c2cccs2)S(=O)(=O)c2ccc(F)c(C)c2)c1 (stereo not given)	-4%	-3%	nt
2	Cc1nc(-c2ccc(S(=O)(=O)N3CCN(c4ccccc4F)CC3)cc2)co1	-6%	-1%	nt
3	O=C(CSCc1ccccc1Cl)N1CCN(c2ccc(F)cc2)CC1	6%	1%	nt
4	Cc1ccc(C)c(NC(=O)C(=O)NCCc2csc(-c3cccc(F)c3)n2)c1	9%	-1%	nt
5	CN(C)CCCn1c(N)c(C#N)c2nc3ccccc3nc21	28%	nt	-5%
6	CCCCC(CC)Cn1c(N)c(C#N)c2nc3ccccc3nc21 (stereo not given)	-12%	32µM*	?
7	CCc1nc2ccc(C(=O)NC3CCN(Cc4ccccc4)CC3)cn2c1N(CC)Cc1cccc(Br)c1	nt	-15%	nt
8	CCNc1nnc(-c2ccc(C)cc2)o1	-8%	20µM*	18%
9	O=C(O)c1cc(-c2ccc(Cl)s2)nc2ccccc12	-1%	nt	?
10	CN(Cc1ccccc1)C(=O)COC(=O)c1cc(-c2ccc(Cl)s2)nc2ccccc12	2%	11µM*	1%
11	CCCCN(CCCC)CCCNC(=O)c1cc(-c2ccc(Cl)s2)nc2ccccc12	20%	35µM*	17%
12	CCCc1nc(SCC(=O)N2CCc3ccccc3C2)c2ccccc2n1	?	0%	23µM*

No.	p53 reactivator	miR-21 reporter	Nrf2 ARE act
1	nt	?	0%
2	nt	5%	-1%
3	nt	-16%	4%
4	nt	-2%	-1%
5	-3%	-7%	5%
6	1%	-1%	1%
7	nt	nt	-3%
8	8%	-50%	-1%
9	-7%	-11%	3%
10	2%	-16%	6%
11	nt	-6%	8%
12	-1%	6%	6%

Overlap with the part before: three compounds, followed by the next part.
No.	Structure	A549 viability	ClpP mod	Nrf2 inh
10	CN(Cc1ccccc1)C(=O)COC(=O)c1cc(-c2ccc(Cl)s2)nc2ccccc12	2%	11µM*	1%
11	CCCCN(CCCC)CCCNC(=O)c1cc(-c2ccc(Cl)s2)nc2ccccc12	20%	35µM*	17%
12	CCCc1nc(SCC(=O)N2CCc3ccccc3C2)c2ccccc2n1	?	0%	23µM*
13	O=C(NCC(c1ccco1)S(=O)(=O)c1cccs1)c1ccccc1F (stereo not given)	1%	-1%	nt
14	CNC(=O)c1cc(C)c(-c2ccccc2)s1	1%	32µM*	nt
15	CCCCCCCCCC[n+]1ccc(/C=C/c2c[nH]c3ccccc23)c2ccccc21	nt	5%	nt
16	O=C(NC(Cc1c[nH]c2ccccc12)C(=O)Nc1ccc(OC(F)(F)F)cc1)c1cccs1 (stereo not given)	23µM*	nt	?
17	O=C(NC(Cc1c[nH]c2ccccc12)C(=O)Nc1ccc(F)c([N+](=O)[O-])c1)c1cccs1 (stereo not given)	-9%	-1%	?
18	COc1ccccc1CNC(=O)c1[nH]c(C)c(C(C)=O)c1C	1%	-2%	-14%
19	COc1cccc(CN(C)C(=O)c2[nH]c(C)c(C(C)=O)c2C)c1OC	-1%	1%	23µM*
20	COc1ccc(CN2CC[C@H]3C=CC[C@@H](C(=O)Nc4ccc(Cl)cc4Cl)[C@H]3C2=O)cc1OC	nt	-2%	nt
21	O=c1[nH]c(=O)n(Cc2ccccc2)c2nc(-c3ccco3)cc(C(F)(F)F)c12	-2%	14µM*	?
22	O=C(COc1ccccc1C(=O)OCC(=O)N1CCOCC1)Nc1ccc(Br)cc1	nt	-2%	nt
23	CCCCCCCCNc1ccccc1S(=O)(=O)NCc1ccccc1	9%	32µM*	0%
24	CCc1nc(N)c(C#N)c(-c2cccnc2)c1C	nt	-23%	-3%

No.	p53 reactivator	miR-21 reporter	Nrf2 ARE act
10	2%	-16%	6%
11	nt	-6%	8%
12	-1%	6%	6%
13	nt	-15%	9%
14	3%	-45%	3%
15	nt	nt	nt
16	15%	27%	-1%
17	?	25%	17%
18	3%	0%	3%
19	0%	11%	0%
20	nt	nt	nt
21	-9%	-4%	0%
22	nt	nt	nt
23	?	nt	0%
24	0%	2%	-1%

(further entries)
No.	Structure	A549 viability	ClpP mod	Nrf2 inh
25	CCc1nc(N)c(C#N)c(-c2ccc(F)cc2)c1C	3%	28µM*	?
26	Cc1ccc(S(=O)(=O)c2nc(-c3ccccc3Cl)oc2N2CCCCCC2)cc1	3%	18µM*	-10%
27	CCOP(=O)(c1ccccc1)c1nc(-c2ccccc2Cl)oc1N1CCCCC1 (stereo not given)	?	20µM*	?
28	O=S(=O)(c1ccccc1)c1nc(-c2ccccc2Cl)oc1N1CCCCCC1	-11%	-30%	-13%

No.	p53 reactivator	miR-21 reporter	Nrf2 ARE act
25	-2%	-3%	-1%
26	nt	17%	3%
27	3%	-27%	1%
28	nt	-4%	4%
